Measurements: US8076367B2, “Benzimidazolylidene propane-1,3-dione derivative or salt thereof” (Astellas Pharma Inc., priority 2004, dated 2011)
Where two headings read alike, the source gives them in different places.

Amino acid sequences for entries named in this document (tags omitted).
UniProt P08684, whole entry: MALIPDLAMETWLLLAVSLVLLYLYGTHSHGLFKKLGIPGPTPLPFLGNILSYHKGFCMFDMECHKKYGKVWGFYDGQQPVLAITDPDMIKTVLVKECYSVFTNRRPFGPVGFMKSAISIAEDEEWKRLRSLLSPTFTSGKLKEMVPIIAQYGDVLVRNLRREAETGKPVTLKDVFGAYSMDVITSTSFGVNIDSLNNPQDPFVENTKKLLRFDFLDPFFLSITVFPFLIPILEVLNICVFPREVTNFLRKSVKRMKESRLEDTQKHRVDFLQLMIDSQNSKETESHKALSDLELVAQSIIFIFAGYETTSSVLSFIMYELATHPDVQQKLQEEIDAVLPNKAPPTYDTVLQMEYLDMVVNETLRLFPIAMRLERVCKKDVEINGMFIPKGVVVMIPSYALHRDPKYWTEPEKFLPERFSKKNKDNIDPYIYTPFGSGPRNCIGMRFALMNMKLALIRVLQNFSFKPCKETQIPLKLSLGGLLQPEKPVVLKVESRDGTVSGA
UniProt P30968, whole entry: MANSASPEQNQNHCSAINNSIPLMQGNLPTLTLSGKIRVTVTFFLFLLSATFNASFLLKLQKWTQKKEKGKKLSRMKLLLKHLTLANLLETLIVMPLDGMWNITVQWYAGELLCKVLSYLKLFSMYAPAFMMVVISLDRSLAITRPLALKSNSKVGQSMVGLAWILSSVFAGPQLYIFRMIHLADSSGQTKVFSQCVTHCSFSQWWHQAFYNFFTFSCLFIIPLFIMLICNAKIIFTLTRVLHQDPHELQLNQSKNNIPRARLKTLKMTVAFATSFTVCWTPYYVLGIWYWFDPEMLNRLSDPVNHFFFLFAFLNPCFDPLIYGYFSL

Assays:
[1] = target: Cytochrome P450 (CYP3A4) (Homo sapiens, UniProt P08684); details: human liver microsome 0.1 mg protein/ml, substrate midazolam, 37° C. 20 minutes
[2] = Measurement of blood concentration of a compound by ex vivo binding assay; details: Wistar male rat, oral 10 mg/kg in 0.5% MC, serum 2 hours after administration
Method: Each compound to be tested was dissolved or suspended in 0.5% methyl cellulose (MC) solution and was orally administered to Wistar male rat of 9 weeks of age (SLC Japan) at a dose of 10 mg/kg. Blood sample was collected after 2 hours of the administration to obtain serum.
Each serum sample was mixed with the same volume of methanol to remove protein and optionally diluted with an assay buffer, and then the ^125I-D-Trp^6-LHRH binding inhibition ratio was measured in the same manner as in Test Example 1. Using a separately prepared calibration curve on the concentration-binding inhibition of compounds to be tested, blood concentration of each compound (μM) was calculated from the binding inhibition ratio.

[3] = target: human GnRH receptor (Homo sapiens, UniProt P30968); assay: Test on GnRH receptor antagonism (125I-D-Trp6-LHRH binding inhibition); details: read-out: GnRH receptor antagonism (A) IC50, inhibition of 125I-D-Trp6-LHRH binding to human GnRH receptor
Method: GnRH receptor antagonism of the compounds of the invention was evaluated by calculating their concentration for inhibiting 50% of the binding of ^125I-D-Trp^6-LHRH to human GnRH receptor (IC50 value), in accordance with the 1. GnRH receptor antagonism test method described on p. 56 of the Patent Reference 1.

Structure (SMILES) | CYP3A4 Inhibitory activity I ([1]; tested form: HCl) [%] | Blood compound concentration (B) 2 hour value ([2]; tested form: HCl) [nM] | IC50 ([3]; tested form: HCl) [nM] | CYP3A4 Inhibitory activity I [1] [%] | Blood compound concentration (B) 2 hour value [2] [nM] | IC50 [3] [nM]
Nc1cccc(C(=O)C(C(=O)c2cc(F)cc(F)c2)=C2Nc3ccccc3N2)c1 | 40 | 1490 | 0.95 | – | – | –
CC(=O)Nc1ccc(CNc2ccc3c(c2)NC(=C(C(=O)c2cccc(C)c2)C(=O)c2cc(F)cc(F)c2)N3)cc1 | – | – | – | 53 | 1290 | 0.97
O=C(C(C(=O)c1cc(F)cc(F)c1)=C1Nc2ccc(NCc3cccnc3)cc2N1)c1ccccc1 | – | – | – | 58 | 40 | 0.19
